Results on 1 molecule are retold here after patent US20090017452A1, “METHODS AND COMPOSITIONS RELATING TO THE PHARMACOGENETICS OF DIFFERENT GENE VARIANTS” (UNIVERSITY OF CHICAGO, priority 2004, published 2009).

The data set can be described thus: Irinotecan and metabolite AUC by ABCC2 3972C>T genotype in cancer patients. To be noted: 350 mg/m^2 IV irinotecan.

In the case of `CCc1c2c(nc3ccc(O[C@@H]4O[C@H](C(=O)O)[C@@H](O)[C@H](O)[C@H]4O)cc13)-c1cc3c(c(=O)n1C2)COC(=O)[C@]3(O)CC` [SN-38G, 10O-glucuronyl-SN-38], the “AUC ratio SN-38G/SN-38 in TT patients compared to CT and CC patients” value is given as “Higher values of AUC ratios”. The “AUC versus ABCC2 3972C>T genotype (TT compared to CT and CC)” value (patients with 6/6 and 6/7 UGT1A1 genotype (n=54)) is recorded as “higher AUC values”.
